OPERA 2.9 data: properties

Data: OPERA 2.9 data sets, kmansouri/OPERA on GitHub.

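OPERA's authors assembled the values from existing databases and did not measure them anew. A listed value is a point estimate from one report or more. How each value was measured is not recorded, so precision varies. Where a salt, mixture or single isomer is drawn, the source does not say that exactly this form was tested. Unmarked limits or estimates from the upstream databases cannot be ruled out.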

Melting points are in °C. Boiling points are in °C, nominally at 760 mmHg. The octanol-water partition coefficient is given as log10; larger values mean a more lipophilic compound. Solubility in water is on a log10 molar scale (set defined at 25 °C). Vapor pressure is log10 of mmHg; the set covers 15 to 30 °C, mostly 20 to 25 °C. Henry's law constant (air-water partitioning) is log10 of atm·m3/mol, nominally at 25 °C. "n/a" marks a cell with nothing listed here.

For C[N+](C)(Cc1ccccc1)Cc1ccccc1.[Cl-] the data give MP 91 °C and logP (octanol/water) -1.83. CCOC(=O)CNC(=O)C(C(C)C)N(C(C)=O)c1cccc(C(F)(F)F)c1 (stereo not given) is reported with MP 95.3 °C and log solubility -3.175 (log10 mol/L). The entry for COC(=O)c1cc(CCl)nn1-c1ncccc1Cl lists MP 68.6 °C and log solubility -2.833 (log10 mol/L). CCCC1CCC(c2ccc(-c3cc(F)c(F)c(F)c3)cc2)CC1 (stereo not given) is reported with MP 38.3 °C and log solubility -6.92 (log10 mol/L) and log vapor pressure -5.791 (log10 mmHg). The entry for NCCCNC1CCCCC1 lists logP (octanol/water) 0.73 and log vapor pressure -1.363 (log10 mmHg).

C=C(C)C(=O)OCCOCCOCCOCC has MP -98 °C and logP (octanol/water) 2.08 and log vapor pressure -3.238 (log10 mmHg). The entry for CCOCC(C)OCC (stereo not given) lists BP 123.9 °C and logP (octanol/water) 1.1 and log solubility -0.397 (log10 mol/L) and log vapor pressure 1.157 (log10 mmHg). CCCCCCCCC=CCCCCCCCC1=NC(CC)(CO)CO1 (stereo not given) is reported with logP (octanol/water) 3.42 and log solubility -5.148 (log10 mol/L) and log vapor pressure -5.029 (log10 mmHg). The entry for CC1OCC(c2ccccc2)O1 (stereo not given) lists logP (octanol/water) 2.19 and log solubility -1.805 (log10 mol/L) and log vapor pressure -0.144 (log10 mmHg). Listed for N#Cc1ccccc1N=C(O)c1snc(Cl)c1Cl: MP 194.4 °C and log solubility -5.775 (log10 mol/L) and log vapor pressure -8.752 (log10 mmHg).

The entry for CCC[C@H]1CC[C@H](C2CCC(CC)CC2)CC1 (stereo partly drawn) lists MP 65.7 °C and BP 323.7 °C and log vapor pressure -3.618 (log10 mmHg). CCCCOc1ccc(C(=O)CCN2CCCCC2)cc1 is reported with logP (octanol/water) 3.7 and log solubility -3.799 (log10 mol/L). For C[N+](C)(C)CCO.[Cl-] the data give logP (octanol/water) -3.77 and log vapor pressure -9.307 (log10 mmHg). Listed for Nc1nc(=O)[nH]cc1F: logP (octanol/water) -1.23 and log vapor pressure -10.95 (log10 mmHg). The entry for CN(C)S(=O)(=O)Nc1ccccc1 lists logP (octanol/water) 1.67 and log solubility -2.19 (log10 mol/L) and log vapor pressure -6.726 (log10 mmHg) and log Henry constant -5.258 (log10 atm·m3/mol).

For CC(C)CC(C)(O)C#CC(C)(O)CC(C)C (stereo not given) the data give logP (octanol/water) 2.8 and log solubility -2.124 (log10 mol/L) and log vapor pressure -2.333 (log10 mmHg). Listed for O=C(c1ccc(O)cc1)c1ccc(Cl)cc1: log solubility -2.834 (log10 mol/L) and log vapor pressure -5.686 (log10 mmHg). The entry for COC1CCCCCCCCCCC1 lists logP (octanol/water) 5.061 and log solubility -4.684 (log10 mol/L) and log vapor pressure -1.306 (log10 mmHg).

Excerpt, the opening 2 entries:

compound	MP (°C)	BP (°C)	logP (octanol/water)	log solubility (log10 mol/L)	log vapor pressure (log10 mmHg)	log Henry constant (log10 atm·m3/mol)
C[N+](C)(Cc1ccccc1)Cc1ccccc1.[Cl-]	91	n/a	-1.83	n/a	n/a	n/a
CCOC(=O)CNC(=O)C(C(C)C)N(C(C)=O)c1cccc(C(F)(F)F)c1 (stereo not given)	95.3	n/a	n/a	-3.175	n/a	n/a